Results: PMC11952830

Legend:
[1] = molecular target: isolated Cdc42EP3 CRIB/BH1 domains (isolated N-terminus of Cdc42EP3), TMR labeled at the N-terminus (human); assay: fluorescence polarisation; fluorescence anisotropy; 20 nM TMR-labeled Cdc42EP3 or variant fixed, actin filaments (polymerized in 1x KMEI) titrated; 1 mg/ml BSA; single-site fit
[2] = molecular target: Cdc42EP3 (1-21), TMR labeled at the N-terminus (human) (UniProt Q9UKI2); assay: fluorescence polarisation; fluorescence anisotropy; 5 nM TMR-labeled Cdc42EP3 residues 1 to 21 fixed, actin filaments titrated; 22 ul in a low volume 384-well plate

## actin (rabbit muscle) (from UniProt P68135 1-377) (natural protein)
[1]
  fold reduced affinity compared to full-length Cdc42EP3: 2 fold
[2]
  fold weakened affinity compared to the isolated N-terminus of Cdc42EP3: 3 to 4 fold
